Assay results: patent US12397096B2, “Red blood cells for drug delivery” (POLITECNICO DI MILANO, priority 2019, dated 2025)

Test system: red blood cells

In the case of FITC-dextran [FITC-dextran 40 kDa], the “red blood cell morphology / damage after encapsulation” value is reported as “not damaged by the presence of the encapsulated dextran”.
